The entries are a selection whose mix differs from that of the whole data set. Calls of active or inactive are those of the source. No stated cut-off is given here; in the data, active means activation above about 23%; inactive means the rest.
Target: Peroxisome proliferator-activated receptor gamma (Homo sapiens) (UniProt P37231)
Experiment: PPARgamma agonists recruiting SRC-3 coactivator, primary screen, biochemical (AID 731);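 further: 0% = DMSO and 100% = reference agonist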
Details: biochemical PPARgamma/SRC-3 coactivator recruitment assay; at 8 µM; active compounds read high

Sequences of proteins named here, by UniProt entry; tags and fusion partners are left off. Residues count along the entry.
UniProt P37231, 232-505 limits assumed: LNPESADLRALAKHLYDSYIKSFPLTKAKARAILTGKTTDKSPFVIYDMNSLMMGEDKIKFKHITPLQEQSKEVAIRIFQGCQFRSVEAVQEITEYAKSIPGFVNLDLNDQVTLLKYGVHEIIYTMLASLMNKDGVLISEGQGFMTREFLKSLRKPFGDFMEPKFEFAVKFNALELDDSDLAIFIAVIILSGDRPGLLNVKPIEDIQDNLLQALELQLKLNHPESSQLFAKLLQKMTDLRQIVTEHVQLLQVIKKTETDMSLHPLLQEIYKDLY
UniProt Q9Y6Q9, whole entry partner: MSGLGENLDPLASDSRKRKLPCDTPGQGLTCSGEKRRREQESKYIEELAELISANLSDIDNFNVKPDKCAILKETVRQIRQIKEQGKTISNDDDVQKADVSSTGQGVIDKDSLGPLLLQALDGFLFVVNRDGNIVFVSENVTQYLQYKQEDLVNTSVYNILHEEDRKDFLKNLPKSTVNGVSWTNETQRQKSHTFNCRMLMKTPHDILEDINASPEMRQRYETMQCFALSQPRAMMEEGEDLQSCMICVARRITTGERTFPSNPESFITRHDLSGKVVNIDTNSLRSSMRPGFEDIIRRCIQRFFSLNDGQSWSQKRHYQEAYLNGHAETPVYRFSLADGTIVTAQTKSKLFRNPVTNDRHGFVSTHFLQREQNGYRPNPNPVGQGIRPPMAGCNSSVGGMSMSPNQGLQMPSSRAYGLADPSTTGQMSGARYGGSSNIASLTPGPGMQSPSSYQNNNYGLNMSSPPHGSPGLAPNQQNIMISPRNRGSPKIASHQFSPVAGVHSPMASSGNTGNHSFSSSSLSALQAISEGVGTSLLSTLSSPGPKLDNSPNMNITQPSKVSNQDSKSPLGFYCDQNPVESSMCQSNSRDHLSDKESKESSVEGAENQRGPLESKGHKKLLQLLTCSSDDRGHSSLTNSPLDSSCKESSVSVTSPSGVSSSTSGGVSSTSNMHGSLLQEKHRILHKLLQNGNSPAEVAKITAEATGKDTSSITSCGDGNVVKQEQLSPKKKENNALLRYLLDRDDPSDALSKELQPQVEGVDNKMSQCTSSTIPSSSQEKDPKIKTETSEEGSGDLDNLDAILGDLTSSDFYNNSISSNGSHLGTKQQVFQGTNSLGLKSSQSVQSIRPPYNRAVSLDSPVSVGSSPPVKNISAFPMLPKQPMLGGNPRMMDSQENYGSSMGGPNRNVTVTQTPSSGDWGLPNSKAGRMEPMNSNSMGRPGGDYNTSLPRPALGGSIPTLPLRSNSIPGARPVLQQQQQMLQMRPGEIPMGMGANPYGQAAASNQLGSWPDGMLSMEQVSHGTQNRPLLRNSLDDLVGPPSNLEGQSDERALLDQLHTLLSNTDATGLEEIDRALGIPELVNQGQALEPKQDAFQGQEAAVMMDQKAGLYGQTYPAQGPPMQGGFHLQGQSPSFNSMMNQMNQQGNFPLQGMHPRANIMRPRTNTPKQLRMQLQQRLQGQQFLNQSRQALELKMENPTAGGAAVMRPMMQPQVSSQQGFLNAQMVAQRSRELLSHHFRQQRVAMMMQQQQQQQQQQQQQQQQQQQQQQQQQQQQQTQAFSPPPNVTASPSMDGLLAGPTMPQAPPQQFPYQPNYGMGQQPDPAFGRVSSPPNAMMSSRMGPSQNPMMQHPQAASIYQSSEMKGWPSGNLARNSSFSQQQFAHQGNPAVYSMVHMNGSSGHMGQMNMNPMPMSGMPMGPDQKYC

**Q.** With `Cc1cc(C)cc(OP(C)(=O)Nc2ccc(C)cc2C)c1` (stereo not drawn) as the compound, how does the activation read?
**A.** inactive: 6.04%

**Q.** With `CCOC(=O)c1ccc(NP(C)(=O)Oc2cc(C)cc(C)c2)cc1` (stereo not drawn) as the compound, how does the activation read?
**A.** inactive: -0.25%

**Q.** With `Cc1cc(C)cc(OP(C)(=O)Nc2ccccn2)c1` (stereo not drawn) as the compound, how does the activation read?
**A.** inactive: -0.72%

**Q.** How did the activation turn out when `CP(=O)(Nc1cccc(Br)c1)Oc1ccccc1` (stereo not drawn) was run?
**A.** inactive: -2.75%

**Q.** How did the activation turn out when `Cc1ccc(C)c(NP(C)(=O)Oc2ccccc2)c1` (stereo not drawn) was run?
**A.** inactive: 0.94%

**Q.** `CC1=NCCc2c1[nH]c1ccccc21.O=[N+]([O-])c1cc([N+](=O)[O-])c(O)c([N+](=O)[O-])c1` was tested. Which activation did it give?
**A.** inactive: 10.1%

**Q.** How did the activation turn out when `CCCOc1ccc(NP(C)(=O)Oc2ccc(Cl)cc2)cc1` (stereo not drawn) was run?
**A.** inactive: -0.74%

**Q.** With `CP(=O)(Nc1ccc(SC(F)(F)F)cc1)Oc1ccccc1` (stereo not drawn) as the compound, how does the activation read?
**A.** inactive: 2.93%

**Q.** `CN1CCCCC1COC(=O)C1(O)c2ccccc2CCc2ccccc21` (stereo not drawn) was tested. Which activation did it give?
**A.** inactive: -6.15%

**Q.** With `COc1ccccc1OP(C)(=O)Nc1c(C)cccc1C` (stereo not drawn) as the compound, how does the activation read?
**A.** inactive: 9.59%

**Q.** With `O=[N+]([O-])c1cc([N+](=O)[O-])c(-n2nnc3ccccc32)c([N+](=O)[O-])c1` as the compound, how does the activation read?
**A.** inactive: 2.5%

**Q.** For `Cc1nc2ccc3ccccc3c2s1.O=[N+]([O-])c1cc([N+](=O)[O-])c(O)c([N+](=O)[O-])c1`, which activation is on record?
**A.** inactive: -11.1%

**Q.** With `Cc1cc(C)cc(OP(C)(=O)Nc2ccc(SC(F)(F)F)cc2)c1` (stereo not drawn) as the compound, how does the activation read?
**A.** inactive: -1.28%

**Q.** Which activation does the source give for `CP(=O)(NC(=O)Nc1ccccc1)Oc1ccccc1` (stereo not drawn) here?
**A.** inactive: 6.21%

**Q.** Which activation does the source give for `CP(=O)(Oc1ccccc1)OC(c1ccccc1)C(F)(F)F` (stereo not drawn) here?
**A.** inactive: 6.57%

**Q.** Which activation does the source give for `Cc1cccc(C)c1OP(C)(=O)Nc1ccc(SC(F)(F)F)cc1` (stereo not drawn) here?
**A.** inactive: 2.79%

**Q.** `CP(=O)(Nc1ccccn1)Oc1ccc(Cl)cc1` (stereo not drawn) was tested. Which activation did it give?
**A.** inactive: -1.61%

**Q.** With `CCOP(C)(=S)SCC(=O)NC(C)C(=O)O` (stereo not drawn) as the compound, how does the activation read?
**A.** inactive: -1.38%

**Q.** `CCOC(=O)c1ccc(NP(C)(=O)Oc2ccc(OC)cc2)cc1` (stereo not drawn) was tested. Which activation did it give?
**A.** inactive: 0.59%

**Q.** For `COc1ccccc1OP(C)(=O)Nc1ccccc1` (stereo not drawn), which activation is on record?
**A.** inactive: 5.23%

**Q.** For `CP(=O)(Nc1ccccc1Br)Oc1ccccc1` (stereo not drawn), which activation is on record?
**A.** inactive: 2.62%

**Q.** Which activation does the source give for `CP(=S)(Nn1cnnc1)Oc1ccccc1` (stereo not drawn) here?
**A.** inactive: 8.63%

**Q.** `Cc1cccc(C)c1OP(C)(N)=O` (stereo not drawn) was tested. Which activation did it give?
**A.** inactive: -3.48%

**Q.** Which activation does the source give for `CC(C)(C)c1ccc(OP(C)(=O)Nc2ccc(SC(F)(F)F)cc2)cc1` (stereo not drawn) here?
**A.** inactive: 3.08%

**Q.** Which activation does the source give for `O=[N+]([O-])c1ccc2c(c1)C=Nc1ccccc1O2` here?
**A.** inactive: -1.33%

**Q.** With `COc1ccc(OP(C)(=O)Nc2cccc(F)c2)cc1` (stereo not drawn) as the compound, how does the activation read?
**A.** inactive: -1.11%

**Q.** How did the activation turn out when `COc1ccccc1OP(C)(=O)Nc1cc(Cl)ccc1C` (stereo not drawn) was run?
**A.** inactive: 0.75%

**Q.** With `Cc1cc(C)cc(OP(C)(N)=O)c1` (stereo not drawn) as the compound, how does the activation read?
**A.** inactive: 2.11%
